Assay results: PubChem BioAssay AID1439 (NMMLSC, 2008)
The list shows a part of the results, in another mix than the full data. Results filed as inconclusive are left out. Calls of active or inactive are those of the source. No stated cut-off is given here; in the data, active means binding response below about 49% or above about 150%; inconclusive means no clear call, values can overlap the other calls; inactive means in between.

Sequences of proteins named here, by UniProt entry; tags and fusion partners are left off.
UniProt P09471, whole entry, looked up: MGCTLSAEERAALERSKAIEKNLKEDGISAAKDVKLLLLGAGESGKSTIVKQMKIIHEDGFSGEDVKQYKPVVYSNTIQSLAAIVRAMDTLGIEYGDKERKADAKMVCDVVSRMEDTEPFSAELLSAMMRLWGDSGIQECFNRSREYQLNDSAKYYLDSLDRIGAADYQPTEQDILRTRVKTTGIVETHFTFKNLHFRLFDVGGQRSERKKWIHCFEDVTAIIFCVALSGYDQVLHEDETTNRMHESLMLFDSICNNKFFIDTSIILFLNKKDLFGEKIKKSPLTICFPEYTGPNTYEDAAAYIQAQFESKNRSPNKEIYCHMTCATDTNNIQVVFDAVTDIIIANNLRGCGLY

Each molecule was assayed against Guanine nucleotide-binding protein G(o) subunit alpha (Homo sapiens) (UniProt P09471) (assay: RGS7-Galphao binding modulators, primary screen, biochemical, multiplexed bead flow cytometry (AID 1439;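 further: fluorescent Galphao held in activated GDP-AlF4 state binding bead-coupled RGS7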)). Conditions: at 10 µM, actives lie on both sides.

Row | SMILES | binding response (% of control)
1 | Cc1c2c(nc3ccccc13)SC(C(Cl)Cl)C2 (stereo not given) | inactive: 100%
2 | O=C(OC1CN2CCC1CC2)C12CC3CC(CC(C3)C1)C2 (stereo not given) | inactive: 97.1%
3 | Cc1cc(=O)[nH]c(N[N+](=O)[O-])n1 | inactive: 109%
4 | COc1ccc(N/C(=N/P(=O)(N2CCOCC2)N2CCOCC2)N2CCOCC2)cc1 | inactive: 104%
5 | CN1CCCC(OC(=O)C(c2ccccc2)c2ccccc2)C1 (stereo not given) | inactive: 106%
6 | Clc1ccc(Cl)c(NC2=NCC(CBr)S2)c1 (stereo not given) | inactive: 107%
7 | COc1ccccc1OP(=O)(Nc1ccc(C)cn1)Oc1ccccc1OC | inactive: 95.8%
8 | Cc1ccc(N/C(=N/P(=O)(N2CCOCC2)N2CCOCC2)N2CCOCC2)cc1 | inactive: 104%
9 | NC(=O)c1cc([N+](=O)[O-])cc([N+](=O)[O-])c1N | inactive: 103%
10 | Oc1ccccc1CNc1ccccn1 | inactive: 104%
11 | O=C(NC(Sc1ccncn1)C(Cl)(Cl)Cl)c1ccccc1 (stereo not given) | inactive: 113%
12 | Cc1c2non([O-])c-2c(C)[n+](=O)[n+]1[O-] | inactive: 92.5%
13 | CC(C)CC(=O)NC(Sc1ccc(Cl)cc1)C(Cl)(Cl)Cl (stereo not given) | inactive: 97.8%
14 | Cc1cc(SC(NC(=O)c2ccc(F)cc2)C(Cl)(Cl)Cl)ncn1 (stereo not given) | inactive: 103%
15 | CCOP(=O)(Nc1ccccc1)OCC | inactive: 102%
16 | CCN(N=Nc1nonc1N)c1nonc1N | inactive: 97.1%
17 | O=[N+]([O-])c1ncn(CCn2ncnc2[N+](=O)[O-])n1 | inactive: 99.8%
18 | CCc1nc2c(n1)c1c(non1O)c1c2no[n+]1[O-] | inactive: 105%
19 | O=[N+]([O-])c1cc([N+](=O)[O-])c(CCNc2ccccc2)c([N+](=O)[O-])c1 | inactive: 93.2%
20 | O=[N+]([O-])c1cccc2n[nH]nc12 | inactive: 98.7%
21 | CC(=O)N1C2C3N(C(C)=O)C1C1N(C(C)=O)C(C(N1C(C)=O)N3C(C)=O)N2C(C)=O | inactive: 102%
22 | COc1ccc(C2=NCC(CBr)S2)cc1 (stereo not given) | inactive: 107%
23 | CC1CCN(C(=O)Oc2c(Cl)cc(Cl)c3cccnc23)CC1 | inactive: 92.8%

Row | SMILES | binding response (% of control)
24 | CC(C)=N/N=C(\N)N[N+](=O)[O-] | inactive: 104%
25 | CN(C)C(=O)OCCc1n(C)cc[n+]1C | inactive: 98.1%
26 | CCN(/C(=N/P(=O)(N1CCOCC1)N1CCOCC1)N1CCOCC1)c1ccc(OC)cc1 | inactive: 99.4%
27 | c1nnnn1CCn1cnnn1 | inactive: 88.4%
28 | CC(C)C(=O)NC(Sc1ccccc1)C(Cl)(Cl)Cl (stereo not given) | inactive: 104%
29 | O=P(Nc1nccs1)(c1ccccc1)c1ccccc1 | inactive: 99%
30 | O=P(Nc1ccccn1)(c1ccc(Br)cc1)c1ccc(Br)cc1 | inactive: 96.4%
31 | O=C(OC1CN2CCC1CC2)c1cccc(Cl)c1 (stereo not given) | inactive: 91.9%
32 | C(Cc1nn[nH]n1)Cc1nn[nH]n1 | inactive: 99.4%
33 | CC(=O)NC(SC(=S)N(C)C)C(Cl)(Cl)Cl (stereo not given) | inactive: 105%
34 | c1ccc(-c2nn[nH]n2)c(-c2nn[nH]n2)c1 | inactive: 68.5%
35 | CCOC(=O)NC(Sc1ccccc1)C(Cl)(Cl)Cl (stereo not given) | inactive: 79.9%
36 | CCNC(=S)/N=C(\N)N[N+](=O)[O-] | inactive: 98%
37 | O=c1c2cc([N+](=O)[O-])ccc2[nH]c2c([N+](=O)[O-])cc([N+](=O)[O-])cc12 | inactive: 96%
38 | CCC(=O)N1C2C3N(C(=O)CC)C1C1N(C(=O)CC)C(C(N1C(=O)CC)N3C(=O)CC)N2C(=O)CC | inactive: 110%
39 | COC(=O)c1cc2c(s1)N=C(c1ccccc1)N(C)P2(=O)N1CCOCC1 (stereo not given) | inactive: 99.9%
40 | Cc1ccc(OP(=O)(Nc2ccccn2)Oc2ccc(C)cc2)cc1 | inactive: 102%
41 | CC(=O)NC(SC(=S)N(CC(C)C)CC(C)C)C(Cl)(Cl)Cl (stereo not given) | inactive: 108%
42 | CC(C)(C)C(=O)NC(Sc1ccccc1)C(Cl)(Cl)Cl (stereo not given) | inactive: 91%
43 | O=P1(Nc2nc3ccc(Cl)cc3s2)COc2ccccc2O1 (stereo not given) | inactive: 102%
44 | CCOc1ccc(C2=NCC(CBr)S2)cc1 (stereo not given) | inactive: 108%
45 | CC(=O)Nc1ccc(Oc2c([N+](=O)[O-])cc([N+](=O)[O-])cc2[N+](=O)[O-])cc1 | inactive: 97.3%
